Data from PubChem BioAssay AID504454 (NMMLSC, 2011).
The entries are a selection whose mix differs from that of the whole data set. Calls of active or inactive are those of the source.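 The calls were made as follows: active = response above a set limit, near 3 SD of response in nonfluorescent compounds (cut at about 42% in these data); inactive = the rest.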

Amino acid sequences for entries named in this document (tags omitted).
UniProt P07550, whole entry: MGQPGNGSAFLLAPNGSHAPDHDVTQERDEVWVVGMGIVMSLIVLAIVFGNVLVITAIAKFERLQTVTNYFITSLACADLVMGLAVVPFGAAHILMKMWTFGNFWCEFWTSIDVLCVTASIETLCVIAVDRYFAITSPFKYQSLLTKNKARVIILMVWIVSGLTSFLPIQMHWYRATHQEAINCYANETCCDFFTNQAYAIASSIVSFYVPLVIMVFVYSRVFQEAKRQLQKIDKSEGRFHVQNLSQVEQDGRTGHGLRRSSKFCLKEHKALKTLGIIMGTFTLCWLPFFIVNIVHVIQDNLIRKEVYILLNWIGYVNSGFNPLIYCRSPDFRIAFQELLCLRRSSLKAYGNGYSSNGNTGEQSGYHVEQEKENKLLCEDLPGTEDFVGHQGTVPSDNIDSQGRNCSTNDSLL

The molecules below were run against Beta-2 adrenergic receptor (Homo sapiens) (UniProt P07550) (assay: beta2AR agonists driving receptor internalization, primary screen, cell-based, FAP fluorogen, flow cytometry (AID 504454)). Details: Am2.2-beta2AR cells, hits give high values, concentration not given here.

SMILES	response
Cc1ccccc1NC1(C#N)CCN(Cc2ccccc2)CC1	inactive: -11.2%
CCN1CCC(Nc2cccc(F)c2)CC1	inactive: 5.06%
O=C(NCC1(N2CCCCC2)CCCCC1)c1ccco1	inactive: -5.87%
CN(C)c1ccc(C(=O)NCC2(N3CCCCC3)CCCCC2)cc1	inactive: 0.68%
Cn1c(=O)[nH]cc(N(CCCl)CCCl)c1=O	inactive: -5.71%
COc1cc(OC)cc(C(=O)NCC2(N3CCCCC3)CCCCC2)c1	inactive: 4.6%
CC(=O)N(c1ccccc1)C1CCNCC1	inactive: -3.71%
Cc1ccc(NC2(C#N)CCN(Cc3ccccc3)CC2)cc1	inactive: -0.69%
Cc1ccc(C(=O)NCC2(N3CCCCC3)CCCCC2)o1	inactive: 3.4%
Fc1ccccc1NC1CCN(Cc2ccccc2)CC1	inactive: -5.89%
CCC(CO)(C(=O)OC1CN2CCC1CC2)c1ccccc1 (centres undefined)	inactive: 3.16%
COc1cccc(C(=O)N(c2cc(C)cc(C)c2)C2CCN(C(=O)OC(C)(C)C)CC2)c1	inactive: -22.9%
COc1cc(OC)cc(C(=O)NCC2(N3CCOCC3)CCCCC2)c1	inactive: -1.16%
CN1CCC(Nc2ccc(Cl)cc2)CC1	inactive: -3.68%
CCOc1ncccc1C(=O)NCC1(N2CCOCC2)CCCCC1	inactive: -5.24%
CN1CCC(Nc2ccc(F)c(Cl)c2)CC1	inactive: 4.82%
CCCOc1ccc(C(=O)NCC2(N(C)C)CCCCC2)cc1	inactive: -15%
CC(C)(C)OC(=O)N1CCC(Nc2ccccc2)CC1	inactive: 2.65%
O=C(O)C1(Nc2ccccc2)CCN(Cc2ccccc2)CC1	inactive: -7.66%
N/C(=N\O)c1c(N)no[n+]1[O-]	inactive: -6.2%
CCOC(=O)N1CCC(Nc2ccc(C)cc2)CC1	inactive: -1.01%
O=C(OC1CN2CCC1CC2)C1c2ccccc2C=Cc2ccccc21 (centres undefined)	inactive: -3%
O=C(NCC1(N2CCOCC2)CCCCC1)c1cc(Br)ccc1Cl	inactive: 9.15%
COc1cc(C(=O)NCC2(N3CCOCC3)CCCCC2)cc(OC)c1C	inactive: -0.34%
COc1ccc(C(=O)NCC2(N3CCOCC3)CCCCC2)cc1OC	inactive: -3.96%

SMILES	response
c1ccc(CN2CCC(Nc3ccccc3)CC2)cc1	inactive: 6.44%
CCCN1CCC(Nc2cc(OC)cc(OC)c2)CC1	inactive: 4.81%
Cc1cc(N(CCCl)CCCl)ccc1C=O	inactive: -31.8%
CN(C)C1(CNC(=O)c2cccc(C#N)c2)CCCCC1	inactive: -5.98%
CC(C)(C)OC(=O)N1CCC(N(C(=O)c2ccccc2)c2ccc(Cl)cc2)CC1	inactive: -1.22%
N#Cc1ccc(C(=O)NCC2(N3CCCCC3)CCCCC2)cc1	inactive: 1.09%
O=C(NCC1(N2CCCCC2)CCCCC1)c1cccc(C(F)(F)F)c1	inactive: 7.27%
COc1ccc(NC2CCN(C(=O)OC(C)(C)C)CC2)cc1	inactive: -3.64%
CC(C)c1ccc(C(=O)NCC2(N3CCOCC3)CCCCC2)cc1	inactive: -4.19%
CN1CCN(CCOC(=O)C(O)(c2ccccc2)c2ccccc2)CC1	inactive: 2.09%
O=C(NCC1(N2CCOCC2)CCCCC1)c1cc(=O)[nH]c2ccccc12	inactive: -0.57%
COc1cc(C(=O)NCC2(N3CCCCC3)CCCCC2)ccc1OC(F)F	inactive: -1.67%
O=C(NCC1(N2CCCCC2)CCCCC1)c1ccc(OC(F)F)cc1	inactive: 5.16%
O=C(NCC1(N2CCCCC2)CCCCC1)c1cccc([N+](=O)[O-])c1	inactive: -10.8%
CSc1ccc(C(=O)NCC2(N3CCOCC3)CCCCC2)cc1	inactive: -3.48%
CCN1CCC(Nc2ccc(Cl)cc2)CC1	inactive: 7.15%
N#CC1(Nc2ccccc2)CCN(CCc2ccccc2)CC1	inactive: 1.25%
CN1CCC(Nc2cccc(F)c2)CC1	inactive: -3.96%
O=C(NCC1(N2CCCCC2)CCCCC1)c1cncc(Br)c1	inactive: 7.37%
CCCOc1ccc(C(=O)NCC2(N(C)C)CCCCC2)cc1OC	inactive: -9.47%
COc1ccc(CN(CCCl)CCCl)cc1Cl	inactive: 11.6%
CN(C)c1cccc(C(=O)NCC2(N3CCCCC3)CCCCC2)c1	inactive: 1.72%
CC(C)c1ccc(NC2CCN(C(=O)OC(C)(C)C)CC2)cc1	inactive: -0.5%
COc1cc(OC)c(C(=O)NCC2(N(C)C)CCCCC2)cc1OC	inactive: -3.49%
O=C(NCC1(N2CCOCC2)CCCCC1)c1cc(F)c(F)cc1Cl	inactive: -7.4%

SMILES	response
O=C(NCC1(N2CCOCC2)CCCCC1)c1cc2ccccc2o1	inactive: -5.15%
O=C(NCC1(N2CCCCC2)CCCCC1)c1ccc(Cl)nc1	inactive: 0.04%
Cc1cc(C)cc(N(C(=O)c2ccccc2)C2CCN(C(=O)OC(C)(C)C)CC2)c1	inactive: -7.97%
CCOC(=O)N1CCC(Nc2ccc(OC)cc2)CC1	inactive: 3.53%
O=C(NCC1(N2CCCCC2)CCCCC1)c1ccc(Cl)s1	inactive: 5.14%
N#CC1(Nc2ccccc2)CCN(Cc2ccccc2)CC1	inactive: -4.98%
O=C(OC1CN2CCC1CC2)C1c2ccccc2Oc2ccccc21 (centres undefined)	inactive: -0.08%
COc1ccc(Cl)cc1C(=O)NCC1(N2CCOCC2)CCCCC1	inactive: 0.03%
O=C(NCC1(N2CCCCC2)CCCCC1)c1ccc(=O)[nH]c1	inactive: 0.77%
O=C(NCC1(N2CCCCC2)CCCCC1)c1cccs1	inactive: -20.2%
COc1ccc(C(=O)NCC2(N3CCCCC3)CCCCC2)cc1	inactive: 10.6%
COc1ccc(C(=O)NCC2(N3CCCCC3)CCCCC2)c(OC)c1OC	inactive: 1.49%
CC(C)(C)OC(=O)N1CCC(N(C(=O)c2ccccc2)c2ccc(F)cc2)CC1	inactive: 0.16%
CSc1ccccc1C(=O)NCC1(N2CCCCC2)CCCCC1	inactive: 13.9%
Cc1cccc(NC2(C#N)CCN(Cc3ccccc3)CC2)c1	inactive: -3.96%
CCOC(=O)N1CCC(Nc2cccc(C)c2)CC1	inactive: 3.16%
COc1cc(C(=O)NCC2(N(C)C)CCCCC2)ccc1OC(F)F	inactive: -10.4%
CCOc1ccc(C)cc1CN(CCCl)CCCl	inactive: 4.74%
O=C1CCN(Cc2ccccc2)CC1	inactive: -0.49%
CCCCOc1ccc(C(=O)NCC2(N3CCOCC3)CCCCC2)cc1	inactive: -2%
O=P1(N(CCCl)CCCl)SCCCS1	inactive: 7.71%
O=C(NCC1(N2CCCCC2)CCCCC1)c1ccc(F)cc1	inactive: -3.93%
CCOC(=O)N1CCC(Nc2ccc(F)cc2)CC1	inactive: 4.4%
COc1ccc(NC2CCN(CCc3ccccc3)CC2)c(OC)c1	inactive: -1.08%
